Data published in patent publication US20080096909A1, “APOMORPHINE INHIBITORS OF AMYLOID-BETA (ABETA) FIBRIL FORMATION AND THEIR USE IN AMYLOIDOSIS BASED DISEASE” (priority 2001, published 2008).

By UniProt entry, the sequences of proteins in these tests, tags left out. Residues count along the entry.
UniProt P05067, 672-711: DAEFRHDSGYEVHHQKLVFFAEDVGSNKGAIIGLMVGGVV

Legend:
[1] = biological target: T1, Aβ 1-40 (Homo sapiens, UniProt P05067); experiment: Thioflavin T (ThT) fluorescence assay for fibril formation; type: biochemical; design: Amyloid-β (Aβ 1-40) was purchased from California Peptides (Lot # SF104); purchased California Peptides Lot # SF104; conditions: Aβ 1-40 100 μM incubated with compound, pH 7.4, 37° C., 3 days
Description: Preparation of Stock Peptide Solutions for Fibrillization Studies. Stock solutions of the inhibitors were prepared by dissolving the compounds at a concentration of 5-7 mM in water or in 1-1.5% DMSO solutions (for compounds with reduced solubility). Amyloid-β (Aβ 1-40) was purchased from California Peptides (Lot # SF104). Aβ 1-40 stock solutions were prepared by dissolving purified and lyophilized peptide in cold double distilled water to yield stock solutions at a concentration of 2 mg/mL. The stock solutions were used within 10-30 minutes of dissolution. Samples for fibril formation assay were prepared by diluting the appropriate amount of Aβ stock with pH 7.4 Tris-HCl buffer (50 mM Tris, 150 mM NaCl) to afford a final peptide concentration of 100 μM. […] Analytical ultracentrifugation, and electron microscopy were periodically used to ensure that we start our experiments with a hydrodynamically defined Aβ monomer, and the absence of any preformed fibrils in solution.
Thioflavin T (ThT) Fluorescence Assay for Fibril Formation. Thioflavin T was purchased from Aldrich (70% purity) and was recrystallized from benzene/ethanol (1:1) to afford yellow crystals (36). Thioflavin T binding assays were performed by addition of 50 μL of 100 μM Aβ solutions, which were incubated at 37° C. in the absence and presence of inhibitors, to 450 μL solution of 10 μM Thioflavin T in phosphate buffer (10 mM phosphate, 100 mM KCl). The solutions were mixed and fluorescence measurements were recorded in Biosystems model spectrofluorimeter at 25° C. using a 1 cm path length quartz cell. An excitation slit width of 4 nm and an emission slit width of 8 nm were employed. The excitation wavelength was set to 450 nm and emission monitored from 460-630 nm. The relative fluorescence at 482 nm was plotted for each sample, and was used as a measure of the amount of fibrillar aggregates in solution.

[2] = biological target: T1, Aβ 1-40; experiment: Sedimentation velocity of Aβ quaternary structures in the presence of inhibitors; type: biochemical; design: Amyloid-β (Aβ 1-40) was purchased from California Peptides (Lot # SF104); purchased California Peptides Lot # SF104; conditions: Aβ 100 μM, compound 100 μM, 20 h at 37° C.
Description: Probing the Mechanism of Amyloid Fibril Formation Inhibition using Sedimentation Velocity Experiments. To probe the mechanism by which apomorphine and its structural analogues inhibit Aβ fibril formation, sedimentation velocity was used to determine the distribution and molecular size of quaternary structures of Aβ in the presence and absence of inhibitors. Aβ samples (100 μM) in a pH 7.4 buffer (50 mM Tris-HCl, 150 mM NaCl) were incubated at 37° C. for 1-10 days in the presence and absence of inhibitors, then transferred to 25° C. for 1-3 hours before the sedimentation experiments were carried out at 20° C. The sedimentation properties of Aβ 1-40 in the absence and presence of inhibitors were obtained from data collected on a temperature controlled Beckman XL-1 using 400-420 μL of peptide solutions and data were recorded at rotor speeds of 3,000-30,000 rpm in continuous mode with a step size of 0.005 cm. The sedimentation velocity absorbance profiles were then analyzed using the time derivative (dc/dt) analysis program, which was provided by J. Philo, to obtain the sedimentation coefficient distribution g(*s) for all the quaternary structures in solution as described previously (37, 38).
Fitting of the g(*s) profiles allows for the determination of the sedimentation coefficient (peak position, with a unit of Svedberg, 1 S=10^−13 s) and the diffusion coefficient (from the peak width, with a unit of Fick, 1 F=[…]). This method has the advantage of allowing for the calculation of the molecular weight of the sedimenting species using equation II since s and D can be obtained from the fitting analysis. [formula]
In the cases where the diffusion coefficient cannot be determined accurately, the molecular weight of a spherical protein can still be estimated by combining the Svedberg equation and Stokes equation for the frictional coefficient to obtain equation III which utilizes the estimated sedimentation coefficient: [formula]
Sedimentation velocity was also used to determine the amount of soluble Aβ and Aβ monomer in solution after sedimentation of Aβ aggregates. […] The percent of monomeric species in solution was calculated using equation IV at 50,000 rpm and after complete sedimentation of Aβ high MW oligomeric species. Sedimentation equilibrium studies of the unsedimented species were carried out to determine whether a monomer, dimer or a mixture was present in solution. % of unsedimented Aβ=1−(Absorbance(290 nm, 3000 rpm)−Absorbance(290 nm, 20,000-30,000 rpm))×100 (IV)

[3] = biological target: T1, Aβ 1-40; experiment: Aβ 1-40 fibril formation inhibition judged by ThT, sedimentation velocity and electron microscopy; conditions: Aβ 1-40 100 μM, pH 7.4, 37° C., 3 days

| SMILES | Thioflavin T fluorescence at 482 nm (amount of fibrils) [1] | Major species in solution after 20 h [2] | Effect on Aβ 1-40 fibril formation (ThT, sedimentation velocity, EM) [3] |
| --- | --- | --- | --- |
| CN1CCc2cccc3c2C1Cc1ccc(O)c(O)c1-3 (single isomer, unassigned; (-)) [apomorphine, (−)-10,11-dihydroxyaporphine] | did not exhibit any increase in ThT fluorescence | accumulation of soluble nonfibrillar assemblies as the major species in solution | – |
| CCCN1CCc2cccc3c2[C@H]1Cc1ccc(O)c(O)c1-3.Cl [D027, R(−)-Propylnorapomorphine hydrochloride] | did not exhibit any increase in ThT fluorescence | accumulation of soluble nonfibrillar assemblies as the major species in solution | inhibited the formation of Aβ 1-40 fibrils |
| Br.CCCN1CCc2cc(O)cc3c2[C@H]1Cc1ccc(O)c(O)c1-3 [D029, R(−)-2,10,11-Trihydroxy-N-propylnorapomorphine hydrobromide] | did not exhibit any increase in ThT fluorescence | accumulation of soluble nonfibrillar assemblies as the major species in solution | inhibited the formation of Aβ 1-40 fibrils |
| Br.CN1CCc2cc(O)cc3c2[C@H]1Cc1ccc(O)c(O)c1-3 [D030, R(−)-2,10,11-Trihydroxyaporphine hydrobromide] | did not exhibit any increase in ThT fluorescence | accumulation of soluble nonfibrillar assemblies as the major species in solution | inhibited the formation of Aβ 1-40 fibrils |
| Br.Oc1ccc2c(c1O)-c1cccc3c1[C@@H](C2)NCC3 [D040, R(−)-Norapomorphine hydrobromide] | did not exhibit any increase in ThT fluorescence | accumulation of soluble nonfibrillar assemblies as the major species in solution | inhibited the formation of Aβ 1-40 fibrils |
| CCCN1CCc2cccc3c2[C@H]1Cc1ccc2c(c1-3)OCO2.Cl [M121, R(−)-10,11-Methylenedioxy-N-n-propylnoraporphine hydrochloride, reference compound] | ThT fluorescence similar in magnitude to that of Aβ 1-40 incubated alone | – | – |
| COc1ccc2c(c1O)-c1cccc3c1[C@@H](C2)N(C)CC3.Cl [R(−)-apocodeine, R(−)-Apocodeine hydrochloride, reference compound] | ThT fluorescence similar in magnitude to that of Aβ 1-40 incubated alone | – | – |
| COc1ccc2c(c1O)-c1c3c(cc4c1[C@H](C2)N(C)CC4)OCO3 [bulbocapnine, Bulbocapnine hydrochloride, reference compound] | ThT fluorescence similar in magnitude to that of Aβ 1-40 incubated alone | – | – |
| COc1ccc2c(c1O)-c1c(OC)c(OC)cc3c1[C@H](C2)N(C)CC3.Cl [isocrydine, Isocrydine hydrochloride, reference compound] | ThT fluorescence similar in magnitude to that of Aβ 1-40 incubated alone | – | – |

Counter-ions that a name gives are not always drawn.
